Measurements published in patent US10815246B2, “Thailanstatin analogs” (priority 2017, dated 2020).

System: NCI-N87 human gastric cancer xenografts
Experiment: In vivo efficacy study, subcutaneous NCI-N87 human gastric cancer xenografts
Design: species or system female Balb/c nude mice

Work on ado-trastuzumab emtansine [Kadcyla] yielded an Avg tumor volume (Group 7, 10 mg/kg single dose i.v., Study Day 6) of 219.52 mm^3, an Avg tumor volume (Group 7, 10 mg/kg single dose i.v., Study Day 9) of 286.58 mm^3 and an Avg tumor volume (Group 7, 10 mg/kg single dose i.v., Study Day 15) of 68.93 mm^3. For the same substance, the Avg tumor volume (Group 7, 10 mg/kg single dose i.v., Study Day 19) was 32.84 mm^3, the Avg tumor volume (Group 7, 10 mg/kg single dose i.v., Study Day 21) was 34.57 mm^3 and the Avg tumor volume (Group 7, 10 mg/kg single dose i.v., Study Day 23) was 32.3 mm^3. It also gave an Avg tumor volume (Group 7, 10 mg/kg single dose i.v., Study Day 25) of 31.49 mm^3, an Avg tumor volume (Group 7, 10 mg/kg single dose i.v., Study Day 27) of 30.89 mm^3 and an Avg tumor volume (Group 7, 10 mg/kg single dose i.v., Study Day 29) of 29.62 mm^3. The Avg tumor volume (Group 7, 10 mg/kg single dose i.v., Study Day 31) was 28.64 mm^3, the Avg tumor volume (Group 8, 3 mg/kg Q4*4 i.v., Study Day 6) was 218.77 mm^3 and the Avg tumor volume (Group 8, 3 mg/kg Q4*4 i.v., Study Day 9) was 262.41 mm^3. The Avg tumor volume (Group 8, 3 mg/kg Q4*4 i.v., Study Day 12) was 148.62 mm^3, the Avg tumor volume (Group 8, 3 mg/kg Q4*4 i.v., Study Day 19) was 61.32 mm^3 and the Avg tumor volume (Group 8, 3 mg/kg Q4*4 i.v., Study Day 21) was 56.15 mm^3. It also gave an Avg tumor volume (Group 8, 3 mg/kg Q4*4 i.v., Study Day 23) of 64.71 mm^3, an Avg tumor volume (Group 8, 3 mg/kg Q4*4 i.v., Study Day 25) of 63.69 mm^3 and an Avg tumor volume (Group 8, 3 mg/kg Q4*4 i.v., Study Day 27) of 60.18 mm^3. For the same substance, the Avg tumor volume (Group 8, 3 mg/kg Q4*4 i.v., Study Day 29) was 53.7 mm^3, the Avg tumor volume (Group 8, 3 mg/kg Q4*4 i.v., Study Day 31) was 48 mm^3 and the “Effect on tumor volume subsequent to treatment (in words)” value (all dose levels and schedules tested for the substance, i.v.) was “reduced tumor volume”.
